According to US8207176B2 (Glaxo Group Limited, priority 2005, dated 2012):

Tested on: influx of neutrophils to the lung in LPS-challenged rats
Experiment: Rat LPS neutrophilia model
Assay type: in vivo
Settings: intratracheal, LPS aerosol 100 ug/ml 15 min, lavage 4 hours later, in at least one of the range of conditions tested, significant p<0.05, nonsignificant p>0.05
Method: The effect of compounds on the influx of neutrophils to the lung in LPS-challenged rats is evaluated as follows. The test compound is suspended in one of the following solutions: 0.5% tween 80/PBS, 0.5% tween 80/saline, 10% EtOH/saline (with pH adjusted to 2.0, or 8.0 with HCl, or unadjusted), Saline @ pH 2.0, 6.5 or 8.0, 0.5% Tragacanth, 1% DMSO/20% Encapsin/Saline, or acidified 5% Tragacanth. The suspension process may be aided by the use of a glass homogenizer. For intratracheal administration, the animals are anesthetized with inhaled isoflurane and placed in a supine position, the trachea is intubated with a steel gavage needle (1.5 inch, 22 gauge, small ball) or a Penn-Century Microsprayer Aerosolizer (model IA-IB) and 200 ul of dosing solution is delivered. The animals are visually monitored during the recovery process, which typically occurs within two minutes. It is noted that the test compounds may be alternatively administered via the microsprayer in a dry powder blend with a suitable excipient, such as lactose.
Rats treated with compound or vehicle (15 min-24 hours pretreatment) are exposed to an LPS aerosol (100 ug/ml) for 15 min. Four hours later the rats are euthanized with pentobarbital (100 mg/kg, i.p.) and the airways are lavaged with 5 washes of 5 ml of phosphate buffered saline. The harvested cells are stained (Diffquick) and counted to determine total and differential cell data. […] Inhibition of neutrophil levels relative to no compound controls is calculated based on the differential counts.
The data is obtained as % inhibition using a particular concentration and pretreat time.

| Compound | inhibition of neutrophilia (neutrophil levels in lung lavage relative to no compound controls) |
| --- | --- |
| CCCNC(=O)c1ccc(C)c(-c2nc(NCCCN(CC)CC)nc3c2ccc(=O)n3-c2c(F)cccc2F)c1 [Example 122, 3-[2-{[3-(diethylamino)propyl]amino}-8-(2,6-difluorophenyl)-7-oxo-7,8-dihydropyrido[2,3-d]pyrimidin-4-yl]-4-methyl-N-propylbenzamide] | statistically nonsignificant inhibition |
| CCN(CC)CCCNc1nc(-c2cc(C(=O)NCC(C)C)ccc2C)c2ccc(=O)n(-c3c(F)cccc3F)c2n1 [Example 124, 3-[2-{[3-(diethylamino)propyl]amino}-8-(2,6-difluorophenyl)-7-oxo-7,8-dihydropyrido[2,3-d]pyrimidin-4-yl]-4-methyl-N-(2-methylpropyl)benzamide] | statistically significant inhibition |
| CCN(CC)CCCNc1nc(-c2cc(C(=O)NC3CCCC3)ccc2C)c2ccc(=O)n(-c3c(F)cccc3F)c2n1 [Example 125, N-cyclopentyl-3-[2-{[3-(diethylamino)propyl]amino}-8-(2,6-difluorophenyl)-7-oxo-7,8-dihydropyrido[2,3-d]pyrimidin-4-yl]-4-methylbenzamide] | statistically nonsignificant inhibition |
| CCN(CC)CCCNc1nc(-c2cc(C(=O)NCC(F)(F)F)ccc2C)c2ccc(=O)n(-c3c(F)cccc3F)c2n1 [Example 128, 3-[2-{[3-(diethylamino)propyl]amino}-8-(2,6-difluorophenyl)-7-oxo-7,8-dihydropyrido[2,3-d]-pyrimidin-4-yl]-4-methyl-N-(2,2,2-trifluoroethyl)benzamide] | inactive |
| CCNC(=O)c1ccc(C)c(-c2nc(NCCCN(CC)CC)nc3c2ccc(=O)n3-c2c(F)cccc2F)c1 [Example 129, 3-[2-{[3-(diethylamino)propyl]amino}-8-(2,6-difluorophenyl)-7-oxo-7,8-dihydropyrido[2,3-d]pyrimidin-4-yl]-N-ethyl-4-methylbenzamide] | statistically nonsignificant inhibition |
